Here are results for 1 compound from ChEMBL document CHEMBL5108047 (J Med Chem, 2022).

The conditions of the data set: mouse, microsomes.

Turning to `O=C(Cc1ccc(C(F)(F)F)cc1C(F)(F)F)N(CC#Cc1cccnn1)c1ccccc1`, the CLH is 31 µL/min/mg.
